Test results from PubChem BioAssay AID651718 (The Scripps Research Institute Molecular Screening Center, 2012).
Only a part is listed here, and it is no random draw. Some tests of the compounds listed are not included; inactive here does not mean inactive elsewhere. Calls of active or inactive are those of the source. No stated cut-off is given here; in the data, active means inhibition above about 4.5%; inactive means the rest.

Each compound was assayed on Methionine sulfoxide reductase A (Bos taurus) (assay: bovine MsrA enzyme inhibitors, primary screen, biochemical, absorbance, HTS (AID 651718;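 further: 0% = vehicle wells with enzyme and 100% = reference inhibitor wells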)). Conditions: purified bovine MsrA, absorbance read-out; at 15.5 µM; hits give high values.
For `C=C(C)C#CC(O)(C(=O)OC1CCN(C)CC1)c1ccccc1` (stereo unspecified), the inhibition was inactive: 0.04%. With `COc1ccc(Br)c(C(=O)NCC2(N3CCCCC3)CCCCC2)c1` the inhibition was inactive: 0.75%. `CC(C)Oc1ccc(C(=O)NCC2(N(C)C)CCCCC2)cc1` was tested, and the inhibition was inactive: 0.44%. With `O=C(OCCN1CCCC1)C(O)(c1ccccc1)c1ccccc1` the inhibition was inactive: -0.04%. `CN(C)c1cccc(C(=O)NCC2(N(C)C)CCCCC2)c1` was tested, and the inhibition was inactive: 0.78%. In the case of `O=C(OC1CN2CCC1CC2)C(CO)(c1ccccc1)c1ccccc1` (stereo unspecified), the inhibition is reported as inactive: -0.44%. For `COc1cccc(C(=O)NCC2(N3CCCCC3)CCCCC2)c1`, the inhibition was inactive: 0.24%. With `COc1ccc(Cl)cc1C(=O)NCC1(N(C)C)CCCCC1` the inhibition was inactive: 0.73%. In the case of `O=C(NCC1(N2CCCCC2)CCCCC1)c1cccc(Cl)c1`, the inhibition is reported as inactive: 1.17%. In the case of `CN(C)C1(CNC(=O)c2ccc(Br)cc2)CCCCC1`, the inhibition is reported as inactive: 0.49%. In the case of `COc1cc(C(=O)NCC2(N(C)C)CCCCC2)c([N+](=O)[O-])cc1OC`, the inhibition is reported as inactive: 2.01%. In the case of `C=CCN1CCN(CCOC(=O)C(O)(c2ccccc2)c2ccccc2)CC1`, the inhibition is reported as inactive: -0.45%. `O=C(NCC1(N2CCCCC2)CCCCC1)c1cc(F)c(F)cc1Cl` was tested, and the inhibition was inactive: -0.96%. For `COc1ccc(C(=O)NCC2(N(C)C)CCCCC2)cc1`, the inhibition was inactive: -1.38%. `Cc1cc(C(=O)NCC2(N3CCCCC3)CCCCC2)ccc1[N+](=O)[O-]` was tested, and the inhibition was inactive: -1.16%. `CCN1CCCC(OC(=O)C2(O)c3ccccc3C=Cc3ccccc32)C1` (stereo unspecified) was tested, and the inhibition was inactive: -0.22%. For `O=C(NCC1(N2CCCCC2)CCCCC1)c1cccc(Br)c1`, the inhibition was inactive: -0.93%. For `Cc1ccccc1C(=O)NCC1(N2CCCCC2)CCCCC1`, the inhibition was inactive: -1.1%. `CN(C)C1CCCC1OC(=O)C(O)(c1ccccc1)c1ccccc1` (stereo unspecified) was tested, and the inhibition was inactive: 0.29%. For `CN(C)c1ccc(C(=O)NCC2(N(C)C)CCCCC2)cc1`, the inhibition was inactive: 1.51%. With `CCN(CC)CC(C)C(C)OC(=O)C(O)(c1ccccc1)c1ccccc1` (stereo unspecified) the inhibition was inactive: -0.77%. In the case of `COc1cc(SC)ccc1C(=O)NCC1(N(C)C)CCCCC1`, the inhibition is reported as inactive: 0.55%. For `CC(C)N1C(=O)CC2(CCN(CCOC(=O)C(O)(c3ccccc3)c3ccccc3)CC2)C1=O`, the inhibition was inactive: 1.81%. `Cc1ccc(C(=O)NCC2(N3CCCCC3)CCCCC2)cc1` was tested, and the inhibition was inactive: -0.61%. With `O=C(NCC1(N2CCCCC2)CCCCC1)c1cc([N+](=O)[O-])ccc1Cl` the inhibition was inactive: -1.37%. `CN1[C@@H]2CC[C@H]1CC(OC(=O)C(O)(c1ccccc1)c1ccccc1)C2` (stereo partly specified) was tested, and the inhibition was inactive: -1.89%.
